ChEMBL document CHEMBL1134160 (Bioorg Med Chem Lett, 2001)

Sequences of proteins named here, by UniProt entry; tags and fusion partners are left off.
UniProt P49582, whole entry, looked up: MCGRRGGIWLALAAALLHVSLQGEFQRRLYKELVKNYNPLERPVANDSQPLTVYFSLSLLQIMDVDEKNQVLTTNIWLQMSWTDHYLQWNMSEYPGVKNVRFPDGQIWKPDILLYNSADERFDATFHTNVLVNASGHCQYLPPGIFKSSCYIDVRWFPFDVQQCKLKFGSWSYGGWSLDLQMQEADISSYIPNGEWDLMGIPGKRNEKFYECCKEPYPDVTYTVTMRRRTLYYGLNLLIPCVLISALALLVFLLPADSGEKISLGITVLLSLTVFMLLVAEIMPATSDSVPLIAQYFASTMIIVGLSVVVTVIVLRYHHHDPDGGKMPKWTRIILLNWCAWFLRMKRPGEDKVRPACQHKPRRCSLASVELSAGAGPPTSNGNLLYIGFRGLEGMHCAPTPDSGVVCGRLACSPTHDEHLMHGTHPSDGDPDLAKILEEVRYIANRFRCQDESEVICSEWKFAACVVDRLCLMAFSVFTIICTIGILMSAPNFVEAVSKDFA

Biological target: Neuronal acetylcholine receptor subunit alpha-7 (Mus musculus) (UniProt P49582)
Assay: Functional activity is expressed as percent efficacy for alpha-7 nAChR.

`O=C(OC1CN2CCC1CC2)c1c[nH]c2ccccc12` (stereo unspecified) was tested, and the Efficacy was 42%.
